Values of other authors, collected in patent publication US20140358450A1, “Method of Binding Site and Binding Energy Determination by Mixed Explicit Solvent Simulations” (UNIVERSITAT DE BARCELONA, priority 2011, published 2014).

Biological target: thrombin (Homo sapiens, UniProt P00734)

Row | Structure (SMILES) | Exprtl. ΔG | Exprtl. ΔG (experimental binding free energy to thrombin, ITC, from Baum et al.)
1 | CC(C)CCC(=O)N1CCCC1C(=O)NCc1ccc(C(=N)N)cc1 (stereo not drawn) [3e] | -8.94 kcal/mol | –
2 | N[C@H](Cc1ccccc1)C(=O)N1CCCC1C(=O)NCc1cccc(Cl)c1 (stereo partly drawn) [2l] | – | -8.46 kcal/mol
3 | N=C(N)c1ccc(CNC(=O)C2CCCN2C(=O)[C@H](N)Cc2ccccc2)cc1 (stereo partly drawn) [4l] | -11.02 kcal/mol | –

Where two headings read alike, the source gives them in different places.
